From patent publication US10654807B2, “Toll-like receptor 8 agonists” (The University Of Kansas, priority 2013, dated 2020)

Protein sequences, listed by entry. Tags and fused reporters are not part of them. Residues count along the entry.
UniProt Q9NYK1, 27-1049: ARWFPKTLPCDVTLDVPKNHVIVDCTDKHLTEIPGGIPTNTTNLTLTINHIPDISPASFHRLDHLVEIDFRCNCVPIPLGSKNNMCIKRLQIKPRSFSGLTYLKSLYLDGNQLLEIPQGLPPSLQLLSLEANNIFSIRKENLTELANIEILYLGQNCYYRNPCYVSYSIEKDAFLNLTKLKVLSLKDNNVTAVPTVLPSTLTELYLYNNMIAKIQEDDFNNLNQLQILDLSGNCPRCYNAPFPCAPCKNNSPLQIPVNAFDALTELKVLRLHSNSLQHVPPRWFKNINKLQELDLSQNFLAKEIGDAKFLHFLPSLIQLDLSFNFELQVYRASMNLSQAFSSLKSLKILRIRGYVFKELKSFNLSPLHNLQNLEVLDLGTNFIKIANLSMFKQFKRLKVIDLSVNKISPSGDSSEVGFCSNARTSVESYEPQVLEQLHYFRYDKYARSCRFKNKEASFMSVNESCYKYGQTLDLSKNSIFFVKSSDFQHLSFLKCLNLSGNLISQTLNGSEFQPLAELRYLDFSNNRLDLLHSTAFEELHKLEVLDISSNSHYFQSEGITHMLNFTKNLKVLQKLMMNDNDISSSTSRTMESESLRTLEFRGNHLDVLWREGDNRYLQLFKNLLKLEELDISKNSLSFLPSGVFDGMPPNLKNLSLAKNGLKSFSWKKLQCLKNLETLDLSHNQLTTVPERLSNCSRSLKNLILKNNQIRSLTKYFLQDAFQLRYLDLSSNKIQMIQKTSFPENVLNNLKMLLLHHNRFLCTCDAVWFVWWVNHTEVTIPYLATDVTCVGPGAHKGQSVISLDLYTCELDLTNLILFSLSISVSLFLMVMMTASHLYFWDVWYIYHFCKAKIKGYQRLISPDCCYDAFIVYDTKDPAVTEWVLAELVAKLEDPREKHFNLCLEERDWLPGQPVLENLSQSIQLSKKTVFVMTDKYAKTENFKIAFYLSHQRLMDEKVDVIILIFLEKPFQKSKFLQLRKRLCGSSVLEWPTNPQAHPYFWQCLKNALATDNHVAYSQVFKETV

Legend:
TLR7/TLR8 = details: background statement; cited from earlier work
human TLR8 = biological target: T1, human TLR8 (Homo sapiens, UniProt Q9NR97); test: human TLR8-specific HEK-Blue reporter gene assay (NF-κB induction); assay type: cell-based; details: TLR8 primary screen
T1 construct: HEK293 cells stably co-transfected with the appropriate hTLR, MD2, and secreted alkaline phosphatase (sAP); expressed in transfected cells; host or cells: HEK293 (HEK-Blue™)
T1 sequence (Q9NR97 27-1041): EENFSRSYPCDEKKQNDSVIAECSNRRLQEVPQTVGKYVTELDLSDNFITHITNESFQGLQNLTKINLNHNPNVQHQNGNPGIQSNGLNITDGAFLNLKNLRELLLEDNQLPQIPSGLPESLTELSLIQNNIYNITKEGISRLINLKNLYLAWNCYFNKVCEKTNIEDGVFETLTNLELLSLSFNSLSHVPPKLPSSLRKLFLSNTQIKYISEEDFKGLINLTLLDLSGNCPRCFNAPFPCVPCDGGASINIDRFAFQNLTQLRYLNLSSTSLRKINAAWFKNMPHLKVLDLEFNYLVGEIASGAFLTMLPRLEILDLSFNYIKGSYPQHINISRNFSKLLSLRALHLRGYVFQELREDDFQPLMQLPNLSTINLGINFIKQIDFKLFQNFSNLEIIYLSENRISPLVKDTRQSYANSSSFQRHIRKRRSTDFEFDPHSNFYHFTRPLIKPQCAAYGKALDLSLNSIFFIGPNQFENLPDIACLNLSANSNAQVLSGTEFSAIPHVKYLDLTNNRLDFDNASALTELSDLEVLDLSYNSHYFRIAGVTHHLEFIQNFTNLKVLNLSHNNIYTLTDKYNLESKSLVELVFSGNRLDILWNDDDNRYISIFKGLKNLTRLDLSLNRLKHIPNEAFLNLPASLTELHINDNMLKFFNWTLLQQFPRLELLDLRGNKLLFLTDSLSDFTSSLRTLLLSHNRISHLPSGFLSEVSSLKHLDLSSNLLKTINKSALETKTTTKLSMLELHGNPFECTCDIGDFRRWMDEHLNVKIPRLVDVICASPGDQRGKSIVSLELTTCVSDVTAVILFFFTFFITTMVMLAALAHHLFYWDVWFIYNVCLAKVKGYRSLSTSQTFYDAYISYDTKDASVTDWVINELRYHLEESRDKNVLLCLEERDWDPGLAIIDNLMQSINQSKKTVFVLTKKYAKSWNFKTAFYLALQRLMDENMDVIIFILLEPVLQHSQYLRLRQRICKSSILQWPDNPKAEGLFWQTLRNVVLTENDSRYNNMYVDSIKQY

human TLR7 = human TLR7 (Homo sapiens, UniProt Q9NYK1)

Row | Structure (SMILES) | TLR7/TLR8 agonism profile described (TLR7/TLR8) | TLR8 agonistic activity (human TLR8) | TLR7 agonistic activity (human TLR7)
1 | CCOCc1nc2c(N)nc3ccccc3c2[nH]1 [Compound 2] | mixed TLR7/TLR8-agonism | – | –
2 | CCCCc1cc2c(o1)c(N)nc1ccccc12 [Compound A8d, 2-butylfuro[2,3-c]quinolin-4-amine] | – | pure TLR8 agonistic activity | devoid of TLR7-stimulatory activities
